Laboratory results reported in patent publication US8987268B2, “Pyrrolopyridazine JAK3 inhibitors and their use for the treatment of inflammatory and autoimmune diseases” (Bristol-Myers Squibb Company, priority 2011, dated 2015).

Protein sequences, listed by entry. Tags and fused reporters are not part of them. Lines headed by an entry give the natural chain unless they say otherwise; changes in a name come on top.
UniProt P52333: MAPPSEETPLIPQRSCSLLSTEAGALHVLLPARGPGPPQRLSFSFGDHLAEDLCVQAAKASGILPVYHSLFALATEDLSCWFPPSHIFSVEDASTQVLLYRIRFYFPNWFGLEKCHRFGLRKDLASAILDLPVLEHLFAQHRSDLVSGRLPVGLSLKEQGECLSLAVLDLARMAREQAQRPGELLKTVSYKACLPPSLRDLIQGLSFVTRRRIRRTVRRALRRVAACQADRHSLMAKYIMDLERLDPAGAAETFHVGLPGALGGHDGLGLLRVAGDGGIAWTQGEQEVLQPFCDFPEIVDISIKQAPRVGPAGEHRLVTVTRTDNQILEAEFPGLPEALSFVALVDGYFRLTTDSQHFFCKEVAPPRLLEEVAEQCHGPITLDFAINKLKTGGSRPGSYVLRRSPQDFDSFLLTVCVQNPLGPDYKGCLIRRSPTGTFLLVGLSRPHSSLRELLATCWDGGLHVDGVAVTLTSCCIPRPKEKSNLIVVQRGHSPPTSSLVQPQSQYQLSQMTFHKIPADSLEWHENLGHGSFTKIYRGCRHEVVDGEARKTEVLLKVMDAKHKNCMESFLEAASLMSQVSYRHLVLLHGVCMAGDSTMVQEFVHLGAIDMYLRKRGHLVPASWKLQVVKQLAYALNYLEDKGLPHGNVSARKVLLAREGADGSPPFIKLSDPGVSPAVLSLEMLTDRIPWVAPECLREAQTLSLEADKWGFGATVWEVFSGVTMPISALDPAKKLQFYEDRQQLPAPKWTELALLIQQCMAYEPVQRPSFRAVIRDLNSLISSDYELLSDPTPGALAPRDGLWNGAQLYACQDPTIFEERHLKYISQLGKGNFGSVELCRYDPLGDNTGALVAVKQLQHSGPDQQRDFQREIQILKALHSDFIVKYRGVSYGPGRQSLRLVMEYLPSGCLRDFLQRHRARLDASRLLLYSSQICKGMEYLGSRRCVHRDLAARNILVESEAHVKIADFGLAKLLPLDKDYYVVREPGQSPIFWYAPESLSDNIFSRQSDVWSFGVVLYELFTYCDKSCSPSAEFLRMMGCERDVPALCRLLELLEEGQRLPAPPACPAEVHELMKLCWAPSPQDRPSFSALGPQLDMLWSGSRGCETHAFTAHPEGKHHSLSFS
UniProt P23458: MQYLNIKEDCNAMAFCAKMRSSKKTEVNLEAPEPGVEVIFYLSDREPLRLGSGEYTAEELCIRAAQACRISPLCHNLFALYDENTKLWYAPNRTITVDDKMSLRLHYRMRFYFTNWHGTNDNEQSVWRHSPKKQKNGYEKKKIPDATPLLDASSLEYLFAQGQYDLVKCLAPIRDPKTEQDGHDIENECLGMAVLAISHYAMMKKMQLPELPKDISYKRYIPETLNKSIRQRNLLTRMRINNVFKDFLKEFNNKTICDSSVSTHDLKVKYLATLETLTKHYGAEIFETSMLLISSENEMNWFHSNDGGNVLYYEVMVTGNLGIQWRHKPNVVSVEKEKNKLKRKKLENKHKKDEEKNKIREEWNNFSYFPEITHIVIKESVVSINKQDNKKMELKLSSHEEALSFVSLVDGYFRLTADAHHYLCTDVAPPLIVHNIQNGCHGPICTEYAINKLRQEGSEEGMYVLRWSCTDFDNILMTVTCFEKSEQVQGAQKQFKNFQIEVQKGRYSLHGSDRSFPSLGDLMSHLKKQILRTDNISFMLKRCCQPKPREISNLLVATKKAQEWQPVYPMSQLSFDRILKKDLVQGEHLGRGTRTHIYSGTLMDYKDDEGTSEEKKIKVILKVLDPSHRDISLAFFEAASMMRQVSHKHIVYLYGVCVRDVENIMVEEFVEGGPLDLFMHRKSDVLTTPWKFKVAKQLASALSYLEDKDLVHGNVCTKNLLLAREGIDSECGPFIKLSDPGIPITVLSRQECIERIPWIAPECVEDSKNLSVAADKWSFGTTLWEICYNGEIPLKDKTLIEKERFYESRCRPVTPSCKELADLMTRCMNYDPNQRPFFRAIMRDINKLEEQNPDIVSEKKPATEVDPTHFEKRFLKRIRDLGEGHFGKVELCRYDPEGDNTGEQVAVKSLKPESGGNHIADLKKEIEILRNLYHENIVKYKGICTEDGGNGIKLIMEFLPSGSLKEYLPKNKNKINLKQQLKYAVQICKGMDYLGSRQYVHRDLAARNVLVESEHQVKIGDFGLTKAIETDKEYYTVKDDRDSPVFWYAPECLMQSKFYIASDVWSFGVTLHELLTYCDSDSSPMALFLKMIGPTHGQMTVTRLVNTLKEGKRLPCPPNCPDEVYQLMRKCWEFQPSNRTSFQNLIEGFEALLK

Assays:
[1] = target: GST-JAK3 enzyme (Homo sapiens (Human), UniProt P52333); test: JAK3 Kinase Assay Protocol (Caliper); format: biochemical; conditions: JAK3 kinase inhibition; read-out: LLE_JAK3_FB (IC50)
Protocol: JAK3 Kinase Assay Protocol (Caliper)
(§1) The assay reactions were performed in U-bottom 384-well plates. […] The reaction was initiated by the combination of GST-JAK3 enzyme with substrates and test compounds. The reactions were incubated at room temperature for 3 hours and terminated by adding 60 μl of 35 mM EDTA to each sample. Each reaction mixture was analyzed on the Caliper LabChip 3000 (Caliper, Hopkinton, Mass.) by electrophoretic separation of the fluorescent substrate and phosphorylated product. […] Compounds were dissolved at 10 mM in dimethylsulfoxide (DMSO) and evaluated at eleven concentrations. IC50 values were derived by non-linear regression analysis.

[2] = target: GST-JAK1 enzyme (Homo sapiens (Human), UniProt P23458); test: JAK1 Kinase Assay Protocol; format: biochemical; conditions: JAK1 kinase inhibition; read-out: LLE_JAK1 (IC50)
Protocol: JAK1 Kinase Assay Protocol
as §1, with “GST-JAK1” for “GST-JAK3”

With `COc1ccc(-c2cc3c(N[C@H]4CN(C(=O)CC#N)C[C@H]4C)c(C(N)=O)cnn3c2)cn1` [Example 54] the IC50 [1] was 133 nM and the IC50 [2] was 110 nM.

With `COc1ccc(-c2cc3c(N[C@@H]4CN(C(=O)CC#N)C[C@@H]4C)c(C(N)=O)cnn3c2)cn1` [Example 53] the IC50 [1] was 1.4 nM.

For `CS(=O)(=O)N1C[C@H](CF)[C@H](Nc2c(C(N)=O)cnn3cc(-c4ccc(C(F)(F)F)nc4)cc23)C1` (racemic) [Example 275, (+/−)-Cis-4-((-4-(fluoromethyl)-1-(methylsulfonyl)pyrrolidin-3-yl)amino)-6-(6-(trifluoromethyl)pyridin-3-yl)pyrrolo[1,2-b]pyridazine-3-carboxamide], the IC50 [1] was 9.7 nM.

Compound `COc1ccc(-c2cc3c(N[C@@H]4CCN(C(=O)[C@@H](C)O)CC4(C)C)c(C(N)=O)cnn3c2)cn1` [Example 56] has an IC50 [2] of 8 nM.
